ChEMBL document CHEMBL4196166 (J Med Chem, 2018)

Key:
[1] = species: Homo sapiens; experiment: Selectivity ratio of IC50 for plasmin (unknown origin) to IC50 for human kidney uPA
[2] = system: Rattus norvegicus; experiment: Antikaliuretic effect in Sprague-Dawley rat assessed as acetazolamide-induced Na+/K+ ratio at 1.5 mg/kg, iv measured after 6 hrs post dose; assay type: ADME, organism-based; details: in vivo
[3] = species: Homo sapiens; experiment: Selectivity ratio of IC50 for trypsin (unknown origin) to IC50 for human kidney uPA
[4] = species: Homo sapiens; experiment: Selectivity ratio of IC50 for activated protein C (unknown origin) to IC50 for human kidney uPA
[5] = species: Homo sapiens; experiment: Selectivity ratio of IC50 for factor 11a (unknown origin) to IC50 for human kidney uPA
[6] = species: Homo sapiens; experiment: Selectivity ratio of IC50 for tPA (unknown origin) to IC50 for human kidney uPA
[7] = species: Homo sapiens; experiment: Selectivity ratio of IC50 for factor 10a (unknown origin) to IC50 for human kidney uPA
[8] = species: Homo sapiens; experiment: Selectivity ratio of IC50 for human plasma kallikrein to IC50 for human kidney uPA
[9] = species: Homo sapiens; experiment: Selectivity ratio of IC50 for thrombin (unknown origin) to IC50 for human kidney uPA

In the case of N=C(N)NC(=O)c1nc(-c2cc3ccccc3o2)c(N2CCCCCC2)nc1N, the Ratio IC50 [1] was 20 to 100, the Ratio [2] was 2.44 to 2.68 and the Ratio IC50 [3] was 20 to 100. For the same compound, the Ratio IC50 [4] was 20 to 100, the Ratio IC50 [5] was 20 to 100 and the Ratio IC50 [6] was 20 to 100. The Ratio IC50 [7] was 20 to 100, the Ratio IC50 [8] was 20 to 100 and the Ratio IC50 [9] was 20 to 100.
